# Yeast mating assay 1: variants of the scFv Ab-14

Binding partner: SARS-CoV-2 spike HR2 peptide, sequence PDVDLGDISGINAS.

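The parent was found by panning a naive human phage display library on the peptide. Variants in AAYL50 differ from the parent at up to three CDR positions; double and triple changes were sampled at random. The scFvs were displayed on barcoded MATa yeast, the peptide on MATalpha yeast. Pairs that bind mate more often; barcode pairs of the diploids are counted by sequencing. The ratio of observed to expected reads was calibrated, replicate by replicate, on BCL2-family standards whose Kd was known from biolayer interferometry. Each pool was mated in three replicate cultures.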

Parent scFv Ab-14: VH joined to VL by a (GGGGS)3 linker. Changes lie in the light chain CDRs alone.
VH: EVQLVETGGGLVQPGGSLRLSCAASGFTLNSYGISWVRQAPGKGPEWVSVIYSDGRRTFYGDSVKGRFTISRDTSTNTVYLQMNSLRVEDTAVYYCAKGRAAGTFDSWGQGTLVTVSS
VL: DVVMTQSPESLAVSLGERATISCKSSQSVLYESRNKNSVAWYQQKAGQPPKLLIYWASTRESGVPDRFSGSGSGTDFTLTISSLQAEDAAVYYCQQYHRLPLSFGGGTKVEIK

Variants are written as CDR1, CDR2 and CDR3 of the light chain (limits as in the source). Parent: KSSQSVLYESRNKNSVA, WASTRES, QQYHRLPLS. Scale: log10 of Kd in nM, estimated from mating counts; low values are strong binders. The mean shown is taken over the replicates in which the pair was detected. Where no diploid with the target was found in that replicate, the entry reads "nd": below detection, most likely a poor binder, though not proof of it. As a blank, each scFv also met three strains without target: over library AAYL50, 18% of these pairings were detected, typically at 4.19 and seldom below 2.99. The control count says in how many pairings with the empty strains this scFv gave a signal, with their mean in brackets. For reference, the parent read 0.65 as the reference entry and 1.68 as a member of this library.

{"CDR-L1": "KSSQSVLYESRNSNSVA", "CDR-L2": "WASTRES", "CDR-L3": "QQYHYLILS", "log10 Kd, replicates": "0.08 / 0.71 / 0.19", "mean, log10 nM": "0.33", "empty controls": "0 of 9"}
{"CDR-L1": "KMSQSVLYESRNKNSAA", "CDR-L2": "WASTRES", "CDR-L3": "QQEHRLPLS", "log10 Kd, replicates": "nd / nd / 3.59", "mean, log10 nM": "3.59", "empty controls": "3 of 9 (3.74)"}
{"CDR-L1": "KSSQSVLGESRNKNYVA", "CDR-L2": "WACTRES", "CDR-L3": "QQYHRLPLS", "log10 Kd, replicates": "nd / 4.45 / nd", "mean, log10 nM": "4.45", "empty controls": "1 of 9 (3.95)"}
{"CDR-L1": "KSSHSVLYESRNKNQVA", "CDR-L2": "WHSTRES", "CDR-L3": "QQYHRLPLS", "log10 Kd, replicates": "3.58 / nd / nd", "mean, log10 nM": "3.58", "empty controls": "2 of 9 (3.62)"}
{"CDR-L1": "KSSQSVLYESRNKNSVW", "CDR-L2": "WASPLES", "CDR-L3": "QQYHRLPLS", "log10 Kd, replicates": "nd / nd / nd", "mean, log10 nM": "nd", "empty controls": "2 of 9 (4.76)"}
{"CDR-L1": "HSSQSVLYESRNKNSVA", "CDR-L2": "WSSTRES", "CDR-L3": "QQYHRLPCS", "log10 Kd, replicates": "1.19 / 1.22 / 2.35", "mean, log10 nM": "1.59", "empty controls": "0 of 9"}
{"CDR-L1": "KSSQVVLYESRNKNSVA", "CDR-L2": "WASTRES", "CDR-L3": "QRYHCLPLS", "log10 Kd, replicates": "2.02 / 1.82 / 1.90", "mean, log10 nM": "1.91", "empty controls": "5 of 9 (4.24)"}
{"CDR-L1": "KSGQSVLYESRNKNSVA", "CDR-L2": "WASTRES", "CDR-L3": "QEYHRLPLK", "log10 Kd, replicates": "nd / nd / nd", "mean, log10 nM": "nd", "empty controls": "1 of 9 (3.99)"}
{"CDR-L1": "KSSQSVLYESRNKNNVA", "CDR-L2": "WVSTRGS", "CDR-L3": "QQYHRLPLS", "log10 Kd, replicates": "0.04 / 0.31 / 0.31", "mean, log10 nM": "0.22", "empty controls": "1 of 9 (3.76)"}
{"CDR-L1": "KSSQSVLYESRNKNSVA", "CDR-L2": "GASWRES", "CDR-L3": "QQYHHLPLS", "log10 Kd, replicates": "0.20 / 0.45 / 0.28", "mean, log10 nM": "0.31", "empty controls": "6 of 9 (5.23)"}
{"CDR-L1": "KSSQSVLYESRNKNSVA", "CDR-L2": "WASMRES", "CDR-L3": "QQPHRDPLS", "log10 Kd, replicates": "5.69 / nd / nd", "mean, log10 nM": "5.69", "empty controls": "3 of 9 (4.24)"}
{"CDR-L1": "KSSQSVLYKSRNKNSVA", "CDR-L2": "WASTRES", "CDR-L3": "QQPHRLPLS", "log10 Kd, replicates": "2.04 / 2.03 / 2.20", "mean, log10 nM": "2.09", "empty controls": "3 of 9 (3.89)"}
{"CDR-L1": "KSSQSVLYESRNKNSVA", "CDR-L2": "WASTRES", "CDR-L3": "QQYHRLPLC", "log10 Kd, replicates": "1.78 / 1.83 / 1.72", "mean, log10 nM": "1.78", "empty controls": "0 of 9"}
{"CDR-L1": "KSSQSVKYESRNKISVA", "CDR-L2": "WASTRES", "CDR-L3": "QQYHRLPQS", "log10 Kd, replicates": "nd / nd / 4.19", "mean, log10 nM": "4.19", "empty controls": "1 of 9 (4.48)"}
{"CDR-L1": "KSSQSVLYESRNKNSFA", "CDR-L2": "WASTREG", "CDR-L3": "QQGHRLPLS", "log10 Kd, replicates": "nd / nd / nd", "mean, log10 nM": "nd", "empty controls": "1 of 9 (3.83)"}
{"CDR-L1": "KSTQSVLYISRNKNSVA", "CDR-L2": "WASTRES", "CDR-L3": "YQYHRLPLS", "log10 Kd, replicates": "nd / nd / 3.43", "mean, log10 nM": "3.43", "empty controls": "1 of 9 (4.40)"}
{"CDR-L1": "YSSQSVLYESRNKNSVA", "CDR-L2": "SASTRES", "CDR-L3": "QQYHRLPLS", "log10 Kd, replicates": "0.49 / 0.53 / 0.46", "mean, log10 nM": "0.49", "empty controls": "0 of 9"}
{"CDR-L1": "KSSQPVAYESRNKNSVA", "CDR-L2": "WASTRES", "CDR-L3": "QQNHRLPLS", "log10 Kd, replicates": "0.96 / 1.11 / 1.05", "mean, log10 nM": "1.04", "empty controls": "1 of 9 (5.10)"}
{"CDR-L1": "KSSQSVLYESRNKNSVA", "CDR-L2": "WASTRES", "CDR-L3": "TQYRRLPLN", "log10 Kd, replicates": "nd / nd / nd", "mean, log10 nM": "nd", "empty controls": "1 of 9 (3.76)"}
{"CDR-L1": "KSSQSVLVQSRNKNDVA", "CDR-L2": "WASTRES", "CDR-L3": "QQYHRLPLS", "log10 Kd, replicates": "1.99 / 1.98 / 1.92", "mean, log10 nM": "1.96", "empty controls": "3 of 9 (4.20)"}
{"CDR-L1": "KSSQSVLVESRNKNEVA", "CDR-L2": "WDSTRES", "CDR-L3": "QQYHRLPLS", "log10 Kd, replicates": "4.44 / 5.16 / nd", "mean, log10 nM": "4.80", "empty controls": "4 of 9 (4.19)"}
{"CDR-L1": "KSSQSVLYESRNKNSVA", "CDR-L2": "GASTRES", "CDR-L3": "QQYHGTPLS", "log10 Kd, replicates": "nd / 2.18 / nd", "mean, log10 nM": "2.18", "empty controls": "0 of 9"}
{"CDR-L1": "KSSQSVLYESFNKNSVA", "CDR-L2": "WASTRES", "CDR-L3": "QWYHRLPLI", "log10 Kd, replicates": "3.21 / 2.55 / 4.72", "mean, log10 nM": "3.49", "empty controls": "4 of 9 (4.06)"}
{"CDR-L1": "KSSQSVLYESRNVNSCA", "CDR-L2": "WASTRES", "CDR-L3": "QQYHRLPSS", "log10 Kd, replicates": "nd / nd / nd", "mean, log10 nM": "nd", "empty controls": "0 of 9"}
{"CDR-L1": "YSYQSVLYESRNKNSVA", "CDR-L2": "WASTRES", "CDR-L3": "QQYHRLRLS", "log10 Kd, replicates": "3.87 / nd / 3.73", "mean, log10 nM": "3.80", "empty controls": "0 of 9"}
{"CDR-L1": "KSSQSKLYESRNFNSVA", "CDR-L2": "WASTRES", "CDR-L3": "QQYHRLPLS", "log10 Kd, replicates": "0.87 / 1.31 / 1.26", "mean, log10 nM": "1.15", "empty controls": "1 of 9 (3.38)"}
{"CDR-L1": "KSSQSVLRESRNKNSVT", "CDR-L2": "WASHRES", "CDR-L3": "QQYHRLPLS", "log10 Kd, replicates": "nd / nd / nd", "mean, log10 nM": "nd", "empty controls": "0 of 9"}

Picked from the list: the 4 lowest averages where every replicate gave a value.

{"CDR-L1": "KSSQSVLYESRNKNNVA", "CDR-L2": "WVSTRGS", "CDR-L3": "QQYHRLPLS", "log10 Kd, replicates": "0.04 / 0.31 / 0.31", "mean, log10 nM": "0.22", "empty controls": "1 of 9 (3.76)"}
{"CDR-L1": "KSSQSVLYESRNKNSVA", "CDR-L2": "GASWRES", "CDR-L3": "QQYHHLPLS", "log10 Kd, replicates": "0.20 / 0.45 / 0.28", "mean, log10 nM": "0.31", "empty controls": "6 of 9 (5.23)"}
{"CDR-L1": "KSSQSVLYESRNSNSVA", "CDR-L2": "WASTRES", "CDR-L3": "QQYHYLILS", "log10 Kd, replicates": "0.08 / 0.71 / 0.19", "mean, log10 nM": "0.33", "empty controls": "0 of 9"}
{"CDR-L1": "YSSQSVLYESRNKNSVA", "CDR-L2": "SASTRES", "CDR-L3": "QQYHRLPLS", "log10 Kd, replicates": "0.49 / 0.53 / 0.46", "mean, log10 nM": "0.49", "empty controls": "0 of 9"}

Values reported by Engelhart et al. 2022, doi:10.1038/s41597-022-01779-4 (FLAb copy).